From patent publication US6346549B1, “Treatment of pharmacology of drug misuse and other addictive disorders” (Knoll Pharmaceutical Company, priority 1999, dated 2002)

Protein sequences, listed by entry. Tags and fused reporters are not part of them.
UniProt P23977, whole entry: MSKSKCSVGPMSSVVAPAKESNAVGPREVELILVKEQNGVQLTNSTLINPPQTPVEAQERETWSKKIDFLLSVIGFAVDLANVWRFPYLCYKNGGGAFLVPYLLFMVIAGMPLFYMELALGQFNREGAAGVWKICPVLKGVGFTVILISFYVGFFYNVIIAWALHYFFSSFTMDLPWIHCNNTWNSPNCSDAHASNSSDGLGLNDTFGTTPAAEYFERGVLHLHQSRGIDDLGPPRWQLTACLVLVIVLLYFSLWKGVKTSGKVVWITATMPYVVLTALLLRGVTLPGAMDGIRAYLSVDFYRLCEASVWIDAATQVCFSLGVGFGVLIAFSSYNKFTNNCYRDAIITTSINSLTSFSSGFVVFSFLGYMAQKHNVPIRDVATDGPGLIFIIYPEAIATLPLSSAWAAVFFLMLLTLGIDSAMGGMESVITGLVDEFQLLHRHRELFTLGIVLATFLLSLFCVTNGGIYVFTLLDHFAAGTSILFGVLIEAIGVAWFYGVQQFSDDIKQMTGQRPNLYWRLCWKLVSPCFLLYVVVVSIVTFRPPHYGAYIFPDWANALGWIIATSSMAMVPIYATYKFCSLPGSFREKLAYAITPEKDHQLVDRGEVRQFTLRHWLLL

Tests used:
[1] = molecular target: [3H]Dopamine reuptake in rat brain tissue (Rattus norvegicus, UniProt P23977); test: biochemical
[2] = molecular target: T1, [3H]Noradenaline reuptake in rat brain tissue (Rattus norvegicus); test: in vitro [3H]noradrenaline reuptake inhibition in rat brain tissue; assay type: biochemical; details: monoamine reuptake inhibition, means of ≧3 separate determinations
T1 construct: in rat brain tissue; from tissue; host or cells: rat brain tissue

SMILES	Ki [1]	Ki [2]
CNC(CC(C)C)C1(c2ccc(Cl)cc2)CCC1 (stereo not shown) [Example 1, N-{1-[1-(4-chlorophenyl)cyclobutyl]-3-methylbutyl}-N-methylamine]	24 nM	
CC(C)CC(N)C1(c2ccc(Cl)cc2)CCC1 (stereo not shown) [Example 2, 1-[1-(4-chlorophenyl)cyclobutyl]-3-methylbutylamine]	31 nM	
COc1ccc(C(CN(C)C)C2(O)CCCCC2)cc1 (stereo not shown) [Venlafaxine]	2590 nM	196 nM
